Assay [1] deals with CD47 (UniProt Q08722). Put plainly: blocking of the CD47-SIRPα interaction (m14 is the blocked ligand), % inhibition against Log[Ab] nM; assay format not given in the text.
Assay [2] addresses CD47 (UniProt Q08722). Nature of the assay: antibody titration read as mean fluorescence intensity (MFI) against Log[Ab] nM; cells or beads and target are not named on the sheet or in the text, CD47 taken as target because both are anti-CD47 antibodies.

Sequences of proteins named here, by UniProt entry; tags and fusion partners are left off. Residues count along the entry.
UniProt Q08722, 19-139 limits assumed: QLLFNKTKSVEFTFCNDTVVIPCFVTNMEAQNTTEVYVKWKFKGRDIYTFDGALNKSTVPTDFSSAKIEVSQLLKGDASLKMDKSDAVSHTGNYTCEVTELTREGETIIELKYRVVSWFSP

As a reminder, the IC50 is the concentration that inhibits the measured activity by half. A high value points to weaker potency in that assay. By EC50 is commonly meant the concentration needed to bring the measured effect to its halfway point. The low end stands for greater potency, the high end for weaker potency. Turning to “reference antibody 5F9 (Forty Seven, Inc.)”, the half-maximal inhibitory concentration (IC50) with CD47 [1] came to 5.77 nM. This substance displayed an EC50 in the assay with CD47 [2] of 5.47 nM.

The values are drawn from patent US20220144943A1 (INTEGRITY BIOVENTURES, published 2022).
